Reference: ChEMBL document CHEMBL4014327 (J Med Chem, 2017)

Sequences of proteins named here, by UniProt entry; tags and fusion partners are left off.
UniProt Q9NWZ3, whole entry: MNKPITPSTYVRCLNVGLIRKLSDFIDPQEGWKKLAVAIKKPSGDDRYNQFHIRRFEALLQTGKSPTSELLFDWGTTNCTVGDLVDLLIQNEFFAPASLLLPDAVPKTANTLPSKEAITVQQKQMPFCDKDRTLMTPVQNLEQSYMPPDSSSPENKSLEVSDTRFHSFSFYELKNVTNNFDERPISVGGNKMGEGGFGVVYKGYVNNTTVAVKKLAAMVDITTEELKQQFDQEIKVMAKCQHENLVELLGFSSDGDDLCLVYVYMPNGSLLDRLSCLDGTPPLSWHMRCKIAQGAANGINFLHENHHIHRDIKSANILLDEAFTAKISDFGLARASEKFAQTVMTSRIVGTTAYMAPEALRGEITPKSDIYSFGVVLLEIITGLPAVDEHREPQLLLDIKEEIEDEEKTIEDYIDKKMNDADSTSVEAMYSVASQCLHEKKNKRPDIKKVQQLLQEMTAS

Key:
[1] = target: T1, Interleukin-1 receptor-associated kinase 4 (Homo sapiens, UniProt Q9NWZ3); test: Inhibition of N-terminal His6-tagged human full length IRAK4 preincubated for 20 mins followed by biotinylated-AGAGRDKYKTLRQIR substrate addition in presence of ATP measured after 60 mins by DELFIA method
[2] = target: T1, Interleukin-1 receptor-associated kinase 4; test: Inhibition of IRAK4 in human PBMC assessed as reduction in R848-stimulated TNF alpha production after 3 hrs

SMILES | IC50 [1] [nM] | IC50 [2] [nM]
COc1cc2c(OC[C@@H]3CCC(=O)N3)ccnc2cc1C(N)=O | 5.9 | 2120
COc1cc2c(OC[C@H]3NC(=O)[C@@]4(F)[C@@H]3[C@@H]4C)nccc2cc1C(N)=O | 0.6 | –
COc1cc2c(OC[C@H]3NC(=O)[C@@H](F)[C@H]3C)nccc2cc1C(N)=O | – | 12.7
